Experimental data: patent US20240335558A1, “ISOLATED POLYPEPTIDE AND USE THEREOF” (GLYCO-THERAPY BIOTECHNOLOGY CO., LTD., priority 2021, published 2024)

How the values were obtained:
[1] = system: SK-Br-3 (Her2+) cells; experiment: In vitro efficacy, CellTiter-Glo Luminescent Cell Viability Assay on SK-Br-3; type: cell-based; settings: 0.001-100 nM, 72 h incubation; FIG. 13
Description: (§1) SK-Br-3 (Her2+) cells were cultured in RPMI 1640 medium (Gibco) supplemented with 10% FBS (Gibco). MDA-MB-231 (Her2−) cells were cultured in DMEM (Gibco) supplemented with 10% FBS (Gibco). The two types of cells in good culture condition were respectively plated in 96-well plates with 5000 cells per well and then incubated for 24 h in a constant-temperature cell incubator at 37° C. and 5% CO2. After the culture, the culture medium was removed from the 96-well plates, and 200 pL fresh culture medium with drug (Trastuzumab, Trastuzumab-G2F-FAmSucMMAE, or Trastuzumab-G2F-FAmP4Tz-TCO-MMAE) (final concentrations were 100 nM, 10 nM, 1 nM, 0.05 nM, 0.1 nM, 0.05 nM, 0.01 nM, 0.001 nM and 0 nM respectively) was then added to the plates. After the sample loading, the cells in the 96-well plates were further incubated for 72 h in the constant-temperature cell incubator. After the incubation, the cells were subjected to a CellTiter-Glo® Luminescent Cell Viability Assay (Promega) to measure the killing effect of the drug to be tested on SK-Br-3 and MDA-MB-231.

[2] = system: MDA-MB-231 (Her2−) cells; experiment: In vitro efficacy, CellTiter-Glo Luminescent Cell Viability Assay on MDA-MB-231; type: cell-based; settings: 0.001-100 nM, 72 h incubation; FIG. 13
Description: as §1

Substance: Trastuzumab-G2F-FAmSucMMAE: antibody conjugate from Trastuzumab-G2F and GDP-FAmSucMMAE using HpFT-2HR, MAR 4
- killing effect on SK-Br-3 (Her2+) cells [1]: strong killing effect
- killing effect on MDA-MB-231 (Her2−) cells [2]: no obvious killing effect

Substance: Trastuzumab-G2F-FAmP4Tz-TCO-MMAE: antibody conjugate from Trastuzumab-G2F-FAmP4Tz and TCO-PEG4-vc-PAB-MMAE, DAR 4
- killing effect on SK-Br-3 (Her2+) cells [1]: strong killing effect
- killing effect on MDA-MB-231 (Her2−) cells [2]: no obvious killing effect
